Test results published in patent publication US9023789B2, “Amylin analogs and pharmaceutical compositions thereof” (Novo Nordisk A/S, priority 2012, dated 2015).

Tests used:
[1] = ASSAY (III) ThT fibrillation assay for physical stability; format: physicochemical
Excerpt: Assay (III)—ThT Fibrillation Assays for the Assessment of Physical Stability of Protein Formulations Low physical stability of a polypeptide may lead to amyloid fibril formation, which is observed as well-ordered, thread-like macromolecular structures in the sample eventually resulting in gel formation. This has traditionally been measured by visual inspection of the sample. However, that kind of measurement is very subjective and depending on the observer. Therefore, the application of a small molecule indicator probe is much more advantageous. Thioflavin T (ThT) is such a probe and has a distinct fluorescence signature when binding to fibrils [Naiki et al. (1989) Anal. […] LeVine (1999) Methods. Enzymol. 09, 274-284]. […] Here, F is the ThT fluorescence at the time t. The constant t0 is the time needed to reach 50% of maximum fluorescence. […] Incubation and Fluorescence Measurement Incubation at given temperature, shaking and measurement of the ThT fluorescence emission were done in a Fluoroskan Ascent FL fluorescence platereader or Varioskan platereader (Thermo Labsystems). […] Fluorescence measurement was done using excitation through a 444 nm filter and measurement of emission through a 485 nm filter. […] The plate was measured every 20 minutes for a desired period of time. […] Concentrations were determined by reverse HPLC methods using a pramlintide standard as a reference. […]

[2] = biological target: T1, human calcitonin receptor (Homo sapiens, UniProt P30988); test: ASSAY (VII) binding to the human calcitonin receptor (SPA, 125I-Calcitonin); conditions: read-out: hCTR bind IC50;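 also: cell membranes (35 ng/µL) combined with SPA beads in 40 µL of pH 7.4 Hepes buffer, 384-well format, signal counted on a TopCounter instrument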
T1 construct: expressed in transfected cells
T1 sequence (P30988 25-474): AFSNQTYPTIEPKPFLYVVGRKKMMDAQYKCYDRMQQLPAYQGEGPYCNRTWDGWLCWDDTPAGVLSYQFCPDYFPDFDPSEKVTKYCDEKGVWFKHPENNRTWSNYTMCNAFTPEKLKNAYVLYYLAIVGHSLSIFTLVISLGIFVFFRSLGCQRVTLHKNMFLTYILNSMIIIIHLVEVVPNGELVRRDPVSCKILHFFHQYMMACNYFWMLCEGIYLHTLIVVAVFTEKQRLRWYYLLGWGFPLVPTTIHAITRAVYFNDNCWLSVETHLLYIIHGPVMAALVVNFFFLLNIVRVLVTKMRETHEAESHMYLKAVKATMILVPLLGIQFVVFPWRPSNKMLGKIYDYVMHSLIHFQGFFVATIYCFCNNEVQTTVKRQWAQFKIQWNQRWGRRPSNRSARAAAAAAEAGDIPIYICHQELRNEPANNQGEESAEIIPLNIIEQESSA

[3] = biological target: T2, human amylin receptor (membranes from Amylin 3(a)/CRE-luc cells) (Homo sapiens, UniProt O60896+P30988); test: ASSAY (V) binding to the human amylin receptor (SPA, 125I-rat amylin); conditions: for IC50: Table 4, read-out: hAmylin-R bind IC50;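 as to all read-outs here: competition binding of cell membranes (35 ng/µL) mixed with SPA beads in 384-well plates at 40 µL total volume, read by scintillation counting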
T2 construct: expressed in transfected cells
T2 sequence (P30988 25-474): T1 sequence (P30988 25-474)
T2 sequence (O60896 24-148 partner): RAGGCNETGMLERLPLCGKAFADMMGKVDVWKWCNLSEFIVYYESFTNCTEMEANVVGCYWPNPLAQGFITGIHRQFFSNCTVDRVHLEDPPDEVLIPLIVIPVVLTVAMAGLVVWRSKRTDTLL

[4] = Table 5, selectivity, hCTR bind IC50 / hAmylin-R bind IC50
[5] = Table 5a, selectivity, hCTR bind IC50 / hAmylin-R bind IC50
[6] = Table 5b, selectivity, hCTR bind IC50 / hAmylin-R bind IC50
[7] = Table 5c, selectivity, hCTR bind IC50 / hAmylin-R bind IC50
[8] = Table 7, human binding selectivity, included for comparison
[9] = Table 7a (preferred compounds), human binding selectivity, included for comparison
[10] = ratio of human calcitonin receptor binding IC50 to human amylin receptor binding IC50

| Compound | ThT pH 4.0 lag time (h) [1] | IC50 [2] | IC50 [3] | Ratio hCT/hAmylin binding [3, 4] | Ratio hCT/hAmylin binding [3, 5] | Ratio hCT/hAmylin binding [3, 6] | Ratio hCT/hAmylin binding [3, 7] | Ratio hCT/hAmylin binding [3, 8] | Ratio hCT/hAmylin binding [3, 9] | Ratio hCT/hAmylin binding [3, 10] |
| --- | --- | --- | --- | --- | --- | --- | --- | --- | --- | --- |
| CC[C@H](C)[C@H](NC(=O)[C@H](C)NC(=O)CNC(=O)[C@H](Cc1ccccc1)NC(=O)[C@H](CC(N)=O)NC(=O)[C@@H]1CCCN1C(=O)[C@H](CO)NC(=O)[C@H](CO)NC(=O)[C@H](Cc1c[nH]cn1)NC(=O)[C@H](CCCNC(=N)N)NC(=O)[C@H](CC(C)C)NC(=O)[C@H](Cc1ccccc1)NC(=O)[C@H](CC(N)=O)NC(=O)[C@H](C)NC(=O)[C@H](CC(C)C)NC(=O)[C@H](CCCNC(=N)N)NC(=O)[C@H](CCC(N)=O)NC(=O)[C@@H](NC(=O)[C@H](C)NC(=O)[C@@H]1CSSC[C@H](NC(=O)[C@H](CCCCN)NC(=O)CC[C@H](NC(=O)CCCCCCCCCCCCCCCCCCC(=O)O)C(=O)O)C(=O)N[C@@H](CC(N)=O)C(=O)N[C@@H]([C@@H](C)O)C(=O)N[C@@H](C)C(=O)N[C@@H]([C@@H](C)O)C(=O)N1)[C@@H](C)O)C(=O)N1CCC[C@H]1C(=O)N[C@@H](CO)C(=O)N[C@@H](CO)C(=O)N[C@H](C(=O)N[C@@H](CC(N)=O)C(=O)N[C@H](C(=O)NCC(=O)N[C@@H](CO)C(=O)N[C@@H](CC(N)=O)C(=O)N[C@H](C(=O)N[C@@H](Cc1ccc(O)cc1)C(N)=O)[C@@H](C)O)C(C)C)[C@@H](C)O [Example 21] | 24 h | 14.2 nM | 0.585 nM | 24.4 | 24.4 | 24.4 | 24.4 | 24.4 | 24.4 | 24.4 |
| CC[C@H](C)[C@H](NC(=O)[C@H](C)NC(=O)CNC(=O)[C@H](Cc1ccccc1)NC(=O)[C@H](CC(N)=O)NC(=O)[C@@H]1CCCN1C(=O)[C@H](CO)NC(=O)[C@H](CO)NC(=O)[C@H](Cc1c[nH]cn1)NC(=O)[C@H](CCCNC(=N)N)NC(=O)[C@H](CC(C)C)NC(=O)[C@H](Cc1ccccc1)NC(=O)[C@H](CC(N)=O)NC(=O)[C@H](C)NC(=O)[C@H](CC(C)C)NC(=O)[C@H](CCCNC(=N)N)NC(=O)[C@H](CCC(N)=O)NC(=O)[C@@H](NC(=O)[C@H](C)NC(=O)[C@@H]1CSSC[C@H](NC(=O)[C@@H](N)CCCCNC(=O)CCCCCCCCCCCCCCCCCCC(=O)O)C(=O)N[C@@H](CC(N)=O)C(=O)N[C@@H]([C@@H](C)O)C(=O)N[C@@H](C)C(=O)N[C@@H]([C@@H](C)O)C(=O)N1)[C@@H](C)O)C(=O)N1CCC[C@H]1C(=O)N[C@@H](CO)C(=O)N[C@@H](CO)C(=O)N[C@H](C(=O)N[C@@H](CC(N)=O)C(=O)N[C@H](C(=O)NCC(=O)N[C@@H](CO)C(=O)N[C@@H](CC(N)=O)C(=O)N[C@H](C(=O)N[C@@H](Cc1ccc(O)cc1)C(N)=O)[C@@H](C)O)C(C)C)[C@@H](C)O [Example 42] | 2 h | 8.11 nM | 0.264 nM | 30.7 | 30.7 | 30.7 | 30.7 | 30.7 | 30.7 | 30.7 |
